Measurements taken from ChEMBL document CHEMBL1139696, “Synthesis of asymmetrical bispyridinium compounds bearing cyano-moiety and evaluation of their reactivation activity against tabun and paraoxon-inhibited acetylcholinesterase” (2006).

Legend:
Parameters in all cases: scale not given: the % may be the effect or the level left
[1] = target: T1, Acetylcholinesterase (Rattus norvegicus) (UniProt P37136); assay: Reactivation of paraoxon inhibited AChE from rat brain at 0.1 uM
T1 sequence (whole entry): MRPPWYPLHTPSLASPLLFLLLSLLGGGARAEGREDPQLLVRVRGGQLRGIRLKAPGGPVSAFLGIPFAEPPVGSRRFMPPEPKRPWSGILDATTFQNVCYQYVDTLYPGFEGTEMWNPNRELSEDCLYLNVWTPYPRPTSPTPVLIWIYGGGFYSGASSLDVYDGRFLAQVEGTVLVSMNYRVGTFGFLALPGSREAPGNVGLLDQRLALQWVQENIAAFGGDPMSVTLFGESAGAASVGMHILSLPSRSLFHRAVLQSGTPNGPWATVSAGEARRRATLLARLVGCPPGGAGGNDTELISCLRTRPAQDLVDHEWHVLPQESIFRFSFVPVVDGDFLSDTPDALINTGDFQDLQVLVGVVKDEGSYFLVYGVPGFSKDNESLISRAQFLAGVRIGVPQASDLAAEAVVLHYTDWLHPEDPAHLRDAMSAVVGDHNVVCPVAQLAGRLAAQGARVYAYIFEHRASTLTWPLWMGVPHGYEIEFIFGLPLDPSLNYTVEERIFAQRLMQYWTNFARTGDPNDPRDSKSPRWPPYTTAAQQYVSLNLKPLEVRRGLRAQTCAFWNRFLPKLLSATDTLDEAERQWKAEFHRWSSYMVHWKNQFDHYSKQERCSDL

[2] = target: T1, Acetylcholinesterase (Rattus norvegicus); assay: Reactivation of tabun inhibited AChE from rat brain at 0.1 uM
[3] = target: T1, Acetylcholinesterase (Rattus norvegicus); assay: Reactivation of tabun inhibited AChE from rat brain at 1 mM
[4] = target: T1, Acetylcholinesterase (Rattus norvegicus); assay: Reactivation of paraoxon inhibited AChE from rat brain at 1 mM

## N#Cc1cc[n+](CCC[n+]2ccc(/C=N\O)cc2)cc1
[1]
  Activity: 25%
[2]
  Activity: 0%
[3]
  Activity: 0%
[4]
  Activity: 32%

## N#Cc1cc[n+](CCC[n+]2ccccc2/C=N/O)cc1
[1]
  Activity: 3%
[2]
  Activity: 0%
[3]
  Activity: 0%
[4]
  Activity: 0%

## N#Cc1cc[n+](CCC[n+]2cccc(/C=N\O)c2)cc1
[1]
  Activity: 0%
[2]
  Activity: 0%
[3]
  Activity: 0%
[4]
  Activity: 4%

## NC(=O)c1cc[n+](COC[n+]2ccccc2/C=N/O)cc1
[1]
  Activity: 0%
[2]
  Activity: 4%
[3]
  Activity: 2%
[4]
  Activity: 35%
